Test results published in publication PMC10747599 (Viruses, 2023).

System: SLEV
Test: Viral load by plaque-forming assay, SLEV-infected Vero CCL81
Assay type: cell-based, St. Louis encephalitis virus (SLEV BeH 355964)
Settings: 20 µM, Vero CCL81, MOI 0.1

SMILES: CCCCc1oc2ccccc2c1C(=O)c1cc(I)c(OCCN(CC)CC)c(I)c1 [Amiodarone]
- reduction in viral load relative to vehicle-treated controls: approximately 10 fold
